The values that follow come from patent publication US20120157471A1, “BENZIMIDAZOLE DERIVATIVES” (PFIZER INC., priority 2009, published 2012).

Sequences of proteins named here, by UniProt entry; tags and fusion partners are left off. Residues count along the entry.
UniProt Q99835, 181-787 limits assumed: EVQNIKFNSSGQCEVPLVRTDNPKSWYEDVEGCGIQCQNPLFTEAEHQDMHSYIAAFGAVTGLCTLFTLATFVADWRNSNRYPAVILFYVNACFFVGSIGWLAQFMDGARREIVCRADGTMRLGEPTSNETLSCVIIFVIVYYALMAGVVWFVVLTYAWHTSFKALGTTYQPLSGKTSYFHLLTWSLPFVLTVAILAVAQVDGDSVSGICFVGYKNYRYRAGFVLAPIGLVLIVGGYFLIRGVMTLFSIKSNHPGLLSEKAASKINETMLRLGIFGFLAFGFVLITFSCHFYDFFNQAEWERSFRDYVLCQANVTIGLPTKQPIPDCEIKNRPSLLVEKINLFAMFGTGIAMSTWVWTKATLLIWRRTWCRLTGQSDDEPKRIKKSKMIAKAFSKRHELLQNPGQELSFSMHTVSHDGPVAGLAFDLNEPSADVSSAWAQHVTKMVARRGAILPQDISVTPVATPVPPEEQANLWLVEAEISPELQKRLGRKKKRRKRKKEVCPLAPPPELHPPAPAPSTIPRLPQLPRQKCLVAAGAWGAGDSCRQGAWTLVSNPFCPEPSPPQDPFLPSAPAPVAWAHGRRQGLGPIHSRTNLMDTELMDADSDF

Test [1] deals with human Smo (amino acids 181-787) (Homo sapiens, UniProt Q99835). Nature of the test: Smo radioligand competition binding assay (displacement of 3H-PF-03451358 from HEK293 membranes). The method, then:
Membranes were prepared from a stable cell line created in HEK293FlpIn-TetR cells (Invitrogen) using FIp recombinase-mediated insertion of the pSecTag-FRT/V5-His vector containing a cDNA encoding amino acids 181-787 of human Smo fused to the murine lgk leader sequence to produce a cell surface expressed Smo 181-781 protein. Hygromycin-resistant clones were obtained and stained for LacZ expression (no expression indicates a correct knock-in of my fusion cDNA). LacZ-negative cells were analyzed for binding tritiated Smo antagonist PF-03451358. For membrane preparation, the HEK293 cells expressing Smo 181-781 were grown to 90% confluence in nine to fifteen 245 mm×245 mm×22 mm dishes, washed with Dulbecco's PBS (15 ml per dish) and harvested via scraping in 10 ml of DPBS. The cells were collected and centrifuged at 1500 rpm (400×g) for 10 min at 4° C. […] Total protein in the membrane preparation is determined using the Pierce BCA protein assay (Pierce Chemical).
For the binding competition assay, 100 μl of Assay Buffer is added to all the wells of a 96 well GF/B filter plate (Millipore MultiScreen-HTS-FB cat# MSFBN6B50) for 10 minutes to pre-wet the filter prior to evacuation of the buffer (8 inches Hg for 8 seconds). […] The plate is counted in a TopCount scintillation counter (Perkin Elmer). […]
(In general: Displacement assays read how much labelled ligand stays bound in the presence of the test substance.)

Test [2] deals with Gli-Luc/MEF cells (Smo). Nature of the test: Gli-Luc/MEF assay (Shh-stimulated luciferase reporter under the Gli response element). The following applies: read-out: Gli IC50, 48 hours. The method, then: The Gli-Luc/MEF cells obtained from Gli-Luc transgenic mice (Pfizer CoE, Genetically Modified Mice) contain a luciferase reporter gene under the control of the Gli response element. Luciferase activity stimulated with Sonic hedgehog ligand was inhibited by Smo inhibitors, and IC50 was subsequently calculated.
Plates were incubated at 37° C. and 5% CO2 overnight. On day two, cells were dosed with test compounds at a final concentration ranging from […] to 50 μM at a 3-time series dilution. Immediately after dosing cells with compounds, recombinant mouse sonic hedgehog (Shh, R&D Systems 464-SH) was added to a final concentration of 2 μg/mL. The cells were incubated with compounds and Shh for 48 hours at 37° C. and 5% CO2. Luciferase assays were conducted on Day 4 using the Bright-Glo Luciferase assay system (Promega E2620) according to Promega's protocol. Briefly, Bright-Glo luciferase reagent was made up and 25 uL were added to each well of the 384-well plate containing media. Plates were kept at room temperature for 5 minutes, and then read on an Envision Luminescence plate reader (Perkin-Elmer). IC50 of the inhibition was calculated by using GraphPad Prism.
For orientation: Reporter assays use an easily measured gene product as a stand-in for the process of interest.

The structures appear in SMILES notation.

As for `Cn1c(-c2cc(N3CCC4(CC3)CC(O)CCO4)ncc2Cl)nc2ccccc21` (stereo not drawn) [Example A-204, 9-[5-chloro-4-(1-methyl-1H-benzimidazol-2-yl)pyridin-2-yl]-1-oxa-9-azaspiro[5.5]undecan-4-ol], the “SMO % inh. @ 0.05 μM” value in test [1] (0.05 μM test compound, displacement of 3H-PF-03451358) amounted to 94%. The concentration for half-maximal inhibition (IC50) (commonly the concentration at which inhibition is half-maximal) stood at 20 nM in test [1] (read-out: SMO IC50, radioligand competition binding) and 10 nM in test [2].
